uPA surface inh: blocks generation of uPA at the cell surface; cell surface uPA generation assay, qHTS; Potency, µM (series often up to 38.3 µM), most hits filed as inhibitors; 330,000 compounds, 0.31% hits; AID 540303; active = well fitted inhibition curve with a large enough effect; inconclusive = small, poorly fitted or top-dose-only effect; inactive = no such curve, though single readings can be large or run the other way; tested in mouse RAW 264.7 cells; also: nearly all actives have a fitted effect of over 55% in size
DT40 TDP1 CPT: DT40-hTDP1 cell growth loss with CPT; chicken DT40 Tdp1-/-;hTDP1 cells + 20 nM CPT, ATP luminescence, 48 h; Potency, µM (series often up to 46.2 µM), hits mostly inhibitors; 420,000 compounds, 12% hits; AID 686979; also: nearly all actives have a fitted effect of over 55% in size
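Chicken DT40 Tdp1-/- cells complemented with human TDP1, 400 cells/well, exposed to compounds plus 20 nM camptothecin for at least 48 h at 37 C; viability read as ATP content by CellTiter-Glo luminescence.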
DT40 TDP1 no CPT: qHTS for Inhibitors of human tyrosyl-DNA phosphodiesterase 1 (TDP1): qHTS in cells in absence of CPT | DT40 Tdp1-/- hTDP1 cells, no CPT, ATP luminescence, 48 h | Potency, µM (highest dose often 46.2 µM), actives largely listed as inhibitors | 420,000 compounds, 15% hits | AID 686978, 2013; also: nearly all actives have a fitted effect of over 55% in size
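Growth kinetics read by CellTiter-Glo luminescence after ≥48 hr at 37 °C. Cells: DT40 Tdp1-/- stably carrying human TDP1, 400 per well, compound exposure in the absence of CPT (DMSO vehicle).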
miR-21 reporter: miR-21 reporter, rising signal | HeLa miR-21 FLuc reporter, luciferase, 48 h | Potency, µM (top dose mostly 38.3 µM) | 340,000 tested, under 10 active | AID 2288; active = well fitted rising curve with a large enough effect; inconclusive = small, poorly fitted or top-dose-only effect; inactive = no such curve, though single readings can be large or run the other way;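 note: miR-21 action dims this reporter so a rising signal means less miR-21 action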
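Using DMEM plus 10% FBS, HeLa miR-21-FLuc cells are incubated with test compounds (final up to about 40uM) for 48 hours; firefly luciferase signal is then imaged following reagent-mediated lysis.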
TDP1 block: blocks human tyrosyl-DNA phosphodiesterase 1; Q9NUW8; recombinant TDP1, AlphaScreen DNA substrate cleavage; Potency, µM (titrated, usually from 130 µM), actives largely listed as inhibitors; 350,000 compounds, 0.28% hits; also: nearly all actives have a fitted effect of over 40% in size
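E. coli-derived human Tdp1, 1 nM final. Cpd preinc 15 min RT; substrate 15 nM final, 5 min RT; AS bead mix 10 ug/ml final, 10 min RT. Signal loss = tyrosine-FITC cleavage. No-enzyme wells = max signal.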
Hits are given with their value; . = inactive; ? = inconclusive; / = no result; ! = not confirmed by another sample; [ ] = remark or other dose. Sampled rows, rich in hits. Any-hit rate of the full collection: about 16%. Unless noted, calls follow the shape of the dose curve; as a rule, active = well fitted curve in the direction sought with a large enough effect; inconclusive = small, poorly fitted or top-dose-only effect, or another doubt; inactive = no such curve, though single readings can be large; an effect the other way counts as inactive or inconclusive.

SMILES | uPA surface inh | DT40 TDP1 CPT | DT40 TDP1 no CPT | miR-21 reporter | TDP1 block
COc1ccc(/C=C/C(=O)Nc2sc3c(c2C(N)=O)CCCC3)cc1 | / | . | . | . | .[12.3 µM]
COC(=O)c1c(NC(=O)/C=C/c2ccc(OC)c(OC)c2)sc2c1CCC2 | / | ? | 9.2µM | . | .[12.3 µM]
COC(=O)c1c(NC(=O)COC(=O)c2ccc(O)cc2)sc2c1CCCCC2 | . | ? | 29.1µM | . | .
CCC(=O)Nc1cccc(C2=NOC3(C2)C[C@@H](C(N)=O)N(C(=O)c2cc([N+](=O)[O-])cc([N+](=O)[O-])c2)C3)c1 (stereo partly drawn) | . | . | . | . | .
COc1cc(Cl)c(NS(=O)(=O)c2c(C(=O)N3CCCC3)c(C)n(C)c2C)c(OC)c1 | . | ? | . | . | .
COc1ccc(C(=O)Nc2ccnn2C2CCN(Cc3cnn(C)c3)CC2)cc1 | . | . | . | . | .
COC(=O)c1ccc(NC(=O)c2c(NCc3ccc(C)o3)sc3c2CCCC3)cc1 | / | 14.6µM | ? | . | .
O=C(COC(=O)c1ccc(O)cc1)Nc1ccc(N2CCCCC2)cc1 | . | ? | 20.6µM | . | .
COC(=O)c1c(NC(=O)c2ccc(C)o2)sc2c1CCCCC2 | . | ? | ? | . | /
COc1cc(OC)cc(C(=O)OCC(=O)Nc2ccc(N3CCCCC3)cc2)c1 | . | . | . | . | .
COc1cccc(CC(=O)Nc2sc3c(c2C(N)=O)CCCC3)c1 | . | . | ? | . | .
COc1ccc(NC(=O)c2c(NCc3ccc(N(C)C)cc3)sc3c2CCC3)cc1 | / | 13µM | 10.3µM | . | .
COc1ccc(CC(=O)Nc2sc3c(c2C(N)=O)CCCC3)cc1OC | . | ? | 18.4µM | . | .
O=C(COC(=O)c1ccc(S(=O)(=O)N2CCCC2)cc1)Nc1ccccc1Cl | / | . | . | / | /
O=C(CNC1CCCCCC1)Nc1ccc(N2CCCC2)cc1 | / | / | / | . | .
COC(=O)c1ccc(NC(=O)c2c(NCc3ccc(OC)c(OC)c3)sc3c2CCCC3)cc1 | / | 2.91µM | 5.17µM | . | .
O=C(CNCCC1=CCCCC1)Nc1ccc(N2CCCCCC2)cc1 | . | 20.6µM | 20.6µM | . | .
COc1ccc(NC(=O)c2c(NCc3cccc(OC)c3)sc3c2CCCC3)cc1 | / | ? | 23.1µM | . | .
O=C(OCc1ccccn1)C1CCN(C(=O)c2ccc(Cl)cc2)CC1 | . | . | . | / | .
COc1cc(C)c(C2NC(=O)c3ccccc3N2)cc1C (stereo not drawn) | . | 2.59µM | 2.06µM | / | /
O=C1NC(c2ccccc2O)Nc2ccccc21 (stereo not drawn) | . | . | . | . | /
Cc1ccc(C)c2nc(Cl)c(C3NC(=O)c4ccccc4N3)cc12 (stereo not drawn) | ? | ? | 16.4µM | . | .
Cn1cc(C2NC(=O)c3ccccc3N2)c2ccccc21 (stereo not drawn) | . | 1.16µM | 1.64µM | / | /
Cc1ccc(C)c(C2NC(=O)c3ccccc3N2)c1 (stereo not drawn) | ? | 0.731µM | 0.581µM | . | /
Cc1ccc(N(CC(=O)NCc2ccccn2)S(=O)(=O)c2ccccc2)cc1C | . | . | . | . | .
SMILES | uPA surface inh | DT40 TDP1 CPT | DT40 TDP1 no CPT | miR-21 reporter | TDP1 block
CCN(CC)CCc1nc(-c2ccccc2)no1 | . | 6.51µM! | 4.11µM! | / | .[21 µM]
CCc1nc(SCc2ccc(OCC(C)C)cc2)n[nH]1 | . | 4.61µM | ? | . | .
COc1ccc(-c2cc(C(=O)Nc3ccc(O)cc3)c3ccccc3n2)cc1OC | . | 10.3µM | 1.46µM | . | .
COc1ccccc1NC(=O)c1cc(-c2ccc(OC)c(OC)c2)nc2ccccc12 | . | 16.4µM | 9.2µM | . | /
COc1ccc(-c2cc(C(=O)NCC(c3ccccc3)N(C)C)c3ccccc3n2)cc1OC (stereo not drawn) | . | ? | ? | . | /
CC(C)COc1ccc(S(=O)(=O)n2cc(F)c(=O)[nH]c2=O)cc1 | . | . | . | . | .
CCCCCN(C(=O)CCC(=O)OCCOc1cccc(C)c1)c1c(N)n(CCCC)c(=O)[nH]c1=O | . | ? | 20.6µM | / | .
CCCCCN(C(=O)CCC(=O)OCCOc1ccc(OCC)cc1)c1c(N)n(CCCC)c(=O)[nH]c1=O | . | ? | . | / | /
CCCCCN(C(=O)CCC(=O)OCc1cccc(Br)c1)c1c(N)n(CCCC)c(=O)[nH]c1=O | . | ? | 14.6µM | / | /
CCCCCN(C(=O)CCC(=O)OCCOc1ccccc1)c1c(N)n(CCCC)c(=O)[nH]c1=O | . | . | . | / | .
CCc1ccccc1-n1c(-c2ccncc2)n[nH]c1=S | / | . | . | . | .
CCSc1nnc(NC(=O)CSc2nc3c(c(=O)n2CCOC)SC(C)C3)s1 (stereo not drawn) | . | 16.4µM | 23.1µM | . | /
CCc1nnc(NC(=O)CSc2nc3c(c(=O)n2CC)SC(C)C3)s1 (stereo not drawn) | . | 18.4µM | 11.6µM | . | .
COc1cc(-c2nc3cnccn3c2Nc2ccccc2)ccc1O | . | 23.1µM | 18.4µM | . | .
COc1cc(-c2nc3ccc(C)cn3c2Nc2ccc3c(c2)OCCO3)ccc1O | . | ? | ? | . | .
COc1cc(-c2nc3nc[nH]n3c2Nc2ccc(C(C)C)cc2)ccc1O | / | 23.1µM | 7.31µM | . | .
COc1cc(-c2nc3cnccn3c2Nc2ccc(C(C)C)cc2)ccc1O | . | 9.2µM | 8.2µM | . | .
CC(C)c1ccc(Nc2c(-c3ccccc3O)nc3cnccn23)cc1 | / | ? | 20.6µM | ? | .
COc1cc(-c2nc3cnccn3c2Nc2ccc(C)cc2)ccc1O | ? | ? | ? | . | .
CCOC(=O)NC(=O)/C(C#N)=N\Nc1cccc(OC)c1 | . | . | . | . | .
CCCCCc1ccc(S(=O)(=O)Nc2cc(C)ccn2)cc1 | . | . | ? | . | .
COCc1c(C(=O)N2CCCC(C)C2)cnn1-c1nccc(-c2cc(C)sc2C)n1 (stereo not drawn) | / | . | . | / | /
Cc1ccccc1CNC(=O)C(C)Sc1ccccc1 (stereo not drawn) | / | . | . | / | /
Cc1ccc(NC(=O)N2CCN(Cc3nc4ccc(C)cc4o3)CC2)c(Cl)c1 | / | . | . | . | .
Cc1ccc(NC(=S)NCCc2c[nH]c3ccccc23)c(C)c1 | . | 13µM | 20.6µM | . | .
SMILES | uPA surface inh | DT40 TDP1 CPT | DT40 TDP1 no CPT | miR-21 reporter | TDP1 block
COc1ccccc1NC(=S)NCCc1ccc(F)cc1 | . | . | ? | . | .
COc1cc(NC(=S)NCCc2c[nH]c3ccccc23)c(OC)cc1Cl | . | ? | ? | . | .
COc1ccccc1NC(=S)NCCc1c[nH]c2ccccc12 | . | 14.6µM | 18.4µM | . | .
COc1ccccc1NC(=S)NCCc1ccccc1 | . | . | 20.6µM | . | .
O=S1(=O)C=C(Sc2nnc(-c3ccccc3)o2)c2ccccc21 | / | 0.517µM | 0.581µM | ? | .
O=S1(=O)C=C(SCCN2CCCCC2)c2ccccc21 | . | . | . | . | .
Cc1cc(C)nc(SC2=CS(=O)(=O)c3ccccc32)n1 | . | ? | 18.4µM | . | .

Compound activity from PubChem.
